# Apparent affinities of Ab-14 variants for a coronavirus HR2 peptide

Target: peptide PDVDLGDISGINAS, taken from heptad repeat 2 (HR2) of SARS-CoV-2 spike.

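The starting antibody came from a phage panning campaign against this peptide. The library (AAYL49) carries one to three amino acid substitutions per variant, with no insertions or deletions. In AlphaSeq, yeast of one mating type display the scFv and yeast of the other type display the target. Binding brings cells together so that they mate, and sequencing counts the barcode pairs among the diploids. Read counts were normalised to the haploid input and turned into Kd by a linear fit to BCL2-family pairs of known affinity, for each replicate. Each pool was mated in three replicate cultures.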

Each scFv is VH, three GGGGS repeats, VL, as in the parent Ab-14, and differs from it in the CDRs of the heavy chain only.
VH: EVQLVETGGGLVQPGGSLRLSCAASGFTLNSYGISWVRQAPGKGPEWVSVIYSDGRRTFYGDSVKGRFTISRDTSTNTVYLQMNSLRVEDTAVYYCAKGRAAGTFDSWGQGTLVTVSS
VL: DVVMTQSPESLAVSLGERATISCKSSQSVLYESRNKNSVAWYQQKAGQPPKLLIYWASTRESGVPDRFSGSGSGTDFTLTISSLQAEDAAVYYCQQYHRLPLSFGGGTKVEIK

Positions count from residue 1 of the parent VH; T28D puts D in place of T. Each Kd is an estimate from the mating assay, the geometric mean of the replicates in which the pair was seen; lower is stronger. A pair that was not seen in any replicate is written "not detected"; this usually means weak binding, but a binder can also be missed. Nonspecific signal, from three strains lacking the peptide, appeared in 15% of pairings of library AAYL49, centred on 11 µM (5% of these signals below 680 nM); values are not corrected for it. For each scFv, signals with the empty controls are counted beside the result.

| changes | Kd (apparent) | replicates with signal | control signals |
|---|---|---|---|
| T28D/S53L/R100T | 39 µM | 3/3 | 2/9 |
| G61E/D62W/V64F | not detected | 0/3 | 0/9 |
| L29R/F59M/V64K | 12 µM | 1/3 | 1/9 |
| S63L/R100N | 330 nM | 3/3 | 0/9 |
| G33H/Y52I/R56C | not detected | 0/3 | 0/9 |
| F27Y/S63V/F105C | not detected | 0/3 | 0/9 |
| S31D/D106K | not detected | 0/3 | 2/9 |
| T28N/F59C/A101R | 41 nM | 3/3 | 1/9 |
| T28Y/V50C/Y52P | 24 µM | 2/3 | 1/9 |
| N30K/F59C/G99D | not detected | 0/3 | 1/9 |
| S53C/T58C/A102L | not detected | 0/3 | 0/9 |
| R57L/T58R/K65R | 1.8 µM | 1/3 | 1/9 |
| I34Q/D62P/D106M | not detected | 0/3 | 1/9 |
| G55R/F59Y | 17 µM | 1/3 | 1/9 |
| I34F/D62M/K65P | not detected | 0/3 | 0/9 |
| T58V/G99S | 17 nM | 3/3 | 2/9 |
| A102L/G103Q/S107A | 6.6 nM | 3/3 | 0/9 |
| Y52K/S63A/R100I | not detected | 0/3 | 1/9 |
| S35N/G61P/A101Q | not detected | 0/3 | 4/9 |
| I51E/Y60N | not detected | 0/3 | 0/9 |
| F27C/T28P/I34T | not detected | 0/3 | 3/9 |
| G33H/G55R/T58I | not detected | 0/3 | 2/9 |
| G26H/Y32D/Y52E | 14 µM | 2/3 | 3/9 |
| S53W/D54P/R57D | not detected | 0/3 | 2/9 |
| T28G/L29N/V50H | not detected | 0/3 | 0/9 |
| R57T/G61S/K65P | 1.3 µM | 1/3 | 0/9 |

The remaining entries, values ahead:

| Kd (apparent) | replicates with signal | control signals | changes |
|---|---|---|---|
| 1.6 µM | 1/3 | 2/9 | I51Y/Y52W/A102C |
| 47 µM | 2/3 | 2/9 | G26L/G55A/T104Q |
| 320 µM | 1/3 | 0/9 | G55C/S63M |
| not detected | 0/3 | 0/9 | G61Q/A102C/T104D |
| 14 µM | 3/3 | 2/9 | N30A/G33Q/V64S |
| not detected | 0/3 | 1/9 | S53W/Y60S/G99K |
| not detected | 0/3 | 2/9 | I34M/R57G |
| 32 µM | 1/3 | 2/9 | N30K/Y52S/F105H |
| not detected | 0/3 | 0/9 | I51F/K65D/G99P |
| 1.2 µM | 1/3 | 0/9 | L29E/A101S/S107K |
| not detected | 0/3 | 2/9 | Y32E/T58V/D106F |
| not detected | 0/3 | 1/9 | R56P/F105N/D106C |
| not detected | 0/3 | 2/9 | Y52N/G61V |
| not detected | 0/3 | 1/9 | L29H/N30H/A102W |
| 200 nM | 3/3 | 0/9 | G26Y/S53Y/G61R |
| not detected | 0/3 | 1/9 | G61A/A102D |
| 27 µM | 2/3 | 3/9 | S31P/Y32T/S63T |
| not detected | 0/3 | 2/9 | G55L/R57T/F105A |
| not detected | 0/3 | 0/9 | L29W/R57Y/A101H |
| not detected | 0/3 | 0/9 | A101P/A102L |
| 8.3 µM | 3/3 | 1/9 | Y32L/G33M/G61L |
| not detected | 0/3 | 2/9 | K65M/S107Y |
| 16 µM | 2/3 | 3/9 | T28M/I51H |
| 520 nM | 3/3 | 0/9 | R57Y/G61S/D106P |
| 1.7 µM | 3/3 | 0/9 | F27E/F59I/D106G |
| not detected | 0/3 | 0/9 | I34Q/Y52V/D106G |
| not detected | 0/3 | 0/9 | I34Y/T58N |

Values reported by Engelhart et al. 2022, doi:10.1038/s41597-022-01779-4 (FLAb copy).